Measured values published in paper PMC4609182.

Chains of the proteins cited; added tags and fusions are not shown. Lines headed by an entry give the natural chain unless they say otherwise; changes in a name come on top.
UniProt Q9JK66: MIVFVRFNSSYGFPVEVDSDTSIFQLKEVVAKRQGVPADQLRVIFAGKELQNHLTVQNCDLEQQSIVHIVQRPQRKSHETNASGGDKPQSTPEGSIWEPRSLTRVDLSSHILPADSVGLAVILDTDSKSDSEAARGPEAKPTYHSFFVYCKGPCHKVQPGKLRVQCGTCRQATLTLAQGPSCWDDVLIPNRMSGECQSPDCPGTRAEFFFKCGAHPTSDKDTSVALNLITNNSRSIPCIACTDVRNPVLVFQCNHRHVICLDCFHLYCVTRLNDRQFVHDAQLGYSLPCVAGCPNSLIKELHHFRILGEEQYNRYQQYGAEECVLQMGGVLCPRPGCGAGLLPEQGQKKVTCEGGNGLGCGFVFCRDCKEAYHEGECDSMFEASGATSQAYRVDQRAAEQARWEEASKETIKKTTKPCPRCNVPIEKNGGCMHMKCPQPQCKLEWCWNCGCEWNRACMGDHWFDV

Target: Phosphorylated Parkin (phospho-Ser65 in the Ubl domain) (rat) (UniProt Q9JK66)
Experiment: ITC; Parkin constructs titrated with UbcH7; 20°C; 50 mM Tris–HCl pH 7.4, 150 mM NaCl, 1 mM TCEP; stoichiometry fixed to 1:1

UbcH7 (E2 ubiquitin-conjugating enzyme) (from UniProt P68036 1-154)
pKd: 3.79

pKd: −log10 of the molar value.
